The text below walks through data of patent publication US9718790B2, “Triazine derivative and pharmaceutical composition having an analgesic activity comprising the same” (SHIONOGI & CO., LTD., priority 2010, dated 2017).

Chains of the proteins cited; added tags and fusions are not shown. Lines headed by an entry give the natural chain unless they say otherwise; changes in a name come on top.
UniProt P56373: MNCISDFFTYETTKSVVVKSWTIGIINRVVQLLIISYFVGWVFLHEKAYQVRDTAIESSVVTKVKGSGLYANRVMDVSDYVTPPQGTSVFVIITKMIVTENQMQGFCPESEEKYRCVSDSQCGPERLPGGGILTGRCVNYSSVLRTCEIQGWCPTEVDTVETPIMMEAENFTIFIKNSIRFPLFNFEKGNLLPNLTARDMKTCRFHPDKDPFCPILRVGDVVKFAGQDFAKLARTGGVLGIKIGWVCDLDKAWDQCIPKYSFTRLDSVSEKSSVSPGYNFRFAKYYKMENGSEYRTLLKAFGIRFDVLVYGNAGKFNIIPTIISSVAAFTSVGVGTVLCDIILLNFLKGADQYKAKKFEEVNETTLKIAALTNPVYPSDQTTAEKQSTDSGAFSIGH

This experiment deals with human P2X3 receptor (Homo sapiens (Human), UniProt P56373). Briefly: Evaluation of human P2X3 receptor inhibitory activity (Fluo-3 calcium fluorescence, FDSS 3000, ATP stimulation).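 Note: stimulus was 50 nM ATP with fluorescence followed for 3 min, and the response per well was peak post-ATP fluorescence divided by the reading at measurement start.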 Format: cell-based. Conditions: Test Example 1.

The term IC50 denotes the concentration needed to halve the response being measured. With `CCn1c(=O)[nH]/c(=N\c2ccc(Oc3ccnc(C(=O)O)c3)cc2)n(CC2CCC(C)CC2)c1=O` (stereo not shown) [Compound I-2422], the IC50 stood at 7 nM.
